Values quoted from earlier work in patent US20090142391A1, “Conjugated RNAi Therapeutics” (priority 2007, published 2009).

Settings: in vivo

## insulin
  half-life: 8 h
